Values quoted from earlier work in US20190192060A1, “DEVICE AND METHOD FOR BLOOD VOLUME MEASUREMENT” (Oregon Health & Science University, priority 2017, published 2019).

Settings: in vivo; cited from earlier work

Substance: FITC-Dextran
- time remaining in circulation: 24 to 48 h
